Tested on: STAT3
Assay: HCS STAT3 assay
Type: cell-based
Description: Compound samples (in 3-5 mg quantities) were evaluated in a variety of assays. All compound submissions were fully characterized (1H, 13C, IR, FIRMS), satisfied purity criteria (≥95% LC/MC, ELS).

| IC50 (Table 5, * average of 2 experiments) [µM] | Compound | IC50 (Table 4) [µM] |
| --- | --- | --- |
|  | 1-(3-(6-(4-Methoxyphenyl)-7-methyl-7H-[1,2,4]triazolo[3,4-b][1,3,4]thiadiazin-3-yl)-5-phenyl-1H-pyrazol-1-yl)ethanone [8A] | 17.9 ± 22.9 |
| 5.72 | COc1ccc(C2=Nn3c(nnc3-c3cc(-c4ccc(Cl)cc4)n[nH]3)S[C@@H]2C)cc1 (single isomer, unassigned; ent-1) [24 (ent-1)] |  |

Source: patent publication US11111253B2, “6-aryl-7-substituted-3-(1H-pyrazol-5-yl)-7H-[1,2,4]triazolo[3,4-b][1,3,4]thiadiazines as inhibitors of the STAT3 pathway with anti-proliferative activity” (UNIVERSITY OF PITTSBURGH—OF THE COMMONWEALTH SYSTEM OF …, priority 2015, dated 2021)
